Experiments:
[1] = molecular target: T1, Transient receptor potential cation channel subfamily V member 1 (Homo sapiens, UniProt Q8NER1); experiment: Inhibition of human vanilloid receptor 1 in HEK293 cells in capsaicin-induced FLIPR assay; assay type: cell-based
How it was run: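 Human VR1 stably expressed in HEK293 cells; calcium influx evoked by 100 nM capsaicin, read by FLIPR. IC50 is the mean of at least three determinations.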

The chains behind the UniProt entries cited, without tags or fusion partners.
UniProt Q8NER1, whole entry: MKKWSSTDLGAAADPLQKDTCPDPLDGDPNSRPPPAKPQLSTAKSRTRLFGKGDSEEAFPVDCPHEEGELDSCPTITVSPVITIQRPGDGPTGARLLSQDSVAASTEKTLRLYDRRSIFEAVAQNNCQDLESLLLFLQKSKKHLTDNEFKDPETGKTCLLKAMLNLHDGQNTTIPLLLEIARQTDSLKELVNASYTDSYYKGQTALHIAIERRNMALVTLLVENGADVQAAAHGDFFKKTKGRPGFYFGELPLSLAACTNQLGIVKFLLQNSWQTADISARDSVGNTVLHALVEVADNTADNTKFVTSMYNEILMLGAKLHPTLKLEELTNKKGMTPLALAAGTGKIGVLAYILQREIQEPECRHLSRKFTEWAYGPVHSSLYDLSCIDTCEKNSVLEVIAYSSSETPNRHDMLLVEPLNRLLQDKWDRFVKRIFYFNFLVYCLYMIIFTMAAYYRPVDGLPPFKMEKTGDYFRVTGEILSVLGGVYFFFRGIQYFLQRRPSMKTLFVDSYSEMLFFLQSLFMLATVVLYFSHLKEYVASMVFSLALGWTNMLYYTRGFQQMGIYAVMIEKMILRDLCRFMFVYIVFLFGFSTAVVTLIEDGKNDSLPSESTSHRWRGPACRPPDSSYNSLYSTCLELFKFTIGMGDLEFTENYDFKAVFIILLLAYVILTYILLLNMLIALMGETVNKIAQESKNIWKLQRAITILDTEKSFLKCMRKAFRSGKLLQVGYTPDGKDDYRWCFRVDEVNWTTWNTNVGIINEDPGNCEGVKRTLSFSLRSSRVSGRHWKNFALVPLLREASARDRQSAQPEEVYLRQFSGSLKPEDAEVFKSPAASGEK

[2] = molecular target: T1, Transient receptor potential cation channel subfamily V member 1; experiment: Inhibition of human vanilloid receptor 1 in HEK293 cells in pH 5.5-induced FLIPR assay; assay type: cell-based

Compound	IC50 [1] [µM]	IC50 [2] [µM]
Cc1cc(N2CCN(C(=O)Nc3nc4ccc(F)cc4s3)[C@H](C)C2)nnc1Cl	1.62	
Cc1cnnc(N2CCN(C(=O)Nc3ccc(C(C)(C)C)cc3)[C@H](C)C2)c1	8.59	> 25
CC(C)(C)c1ccc(NC(=O)N2CCN(c3ccc(Cl)nn3)CC2)cc1	3.83	> 10

From ChEMBL document CHEMBL1138017, “Synthesis and evaluation of pyridazinylpiperazines as vanilloid receptor 1 antagonists” (Bioorg Med Chem Lett, 2004)
